Consider one substance from publication PMC8166871.

In the assay the target is Flag-tagged ATG4B Y8C in the F349A/F388A background (human) (UniProt Q9Y4P1). As to the kind of experiment: co-IP; HEK293T co-transfected with the Flag-tagged protein and GFP-tagged LC3B or GABARAPL1 for 24 h; lysis in 50 mM Tris pH 7.4, 50 mM NaCl, 0.5% Nonidet P-40; anti-Flag gel at 4 °C overnight, washed with TBS three times; immunoblot.

“GFP-tagged LC3B (microtubule-associated protein 1 light chain 3B) (from UniProt Q9GZQ8 1-120) (natural protein)” had a bound LC3B, percent of wild type (% of wild type) of 37.
